Test results from patent US12497465B2, “Combination of antibody-drug conjugate and tubulin inhibitor” (priority 2018, dated 2025).

Legend:
[1] = test system: Human breast cancer cell line MDA-MB-453; test: Antitumor study (4): subcutaneously transplanted MDA-MB-453 cells in nude mice; settings: MDA-MB-453 xenograft, ADC (1) 0.5 mg/kg iv Day 0, paclitaxel 15 mg/kg iv Day 0, 7
[2] = test system: ABCG2 gene; test: RNA expression analysis of JIMT-1 tumors: ABCG2; type: in vivo, human; settings: JIMT-1 tumors in nude mice, after drug administration
[3] = test system: SLFN11 gene; test: RNA expression analysis of JIMT-1 tumors: SLFN11; type: in vivo, human; settings: JIMT-1 tumors in nude mice, after drug administration
[4] = test system: Human gastric cancer cell line SNU-1; test: Antitumor study (5): subcutaneously transplanted SNU-1 cells in nude mice; settings: SNU-1 xenograft, ADC (1) 10 mg/kg iv Day 0, paclitaxel 15 mg/kg iv Day 0, 7
[5] = test system: Human lung cancer cell line NCI-H441; test: Antitumor study (6): subcutaneously transplanted NCI-H441 cells in nude mice; settings: NCI-H441 xenograft, ADC (1) 10 mg/kg iv Day 0, paclitaxel 15 mg/kg iv Day 0, 7

For “antibody-drug conjugate (1): humanized anti-HER2 antibody (SEQ ID NO: 1 residues 1-449, SEQ ID NO: 2 residues 1-214) conjugated to exatecan-derivative drug-linker via a thioether bond”, the TGI [1] was 75%, the “average TPM value of the ABCG2 gene” value [2] was “higher value than that in the tumors of the control group” and the “average TPM value of the SLFN11 gene” value [3] was “lower value than that in the tumors of the control group”. It also gave a TGI [4] of 79% and a TGI [5] of 92%.
